Experimental findings from ChEMBL document CHEMBL1128530, “Alpha- and beta-adrenoceptors: from the gene to the clinic. 1. Molecular biology and adrenoceptor subclassification” (J Med Chem, 1995) are described below.

By UniProt entry, the sequences of proteins in these tests, tags left out. Where a name states a change or a piece, a line headed by the entry shows the natural chain unless it says otherwise.
UniProt P30545: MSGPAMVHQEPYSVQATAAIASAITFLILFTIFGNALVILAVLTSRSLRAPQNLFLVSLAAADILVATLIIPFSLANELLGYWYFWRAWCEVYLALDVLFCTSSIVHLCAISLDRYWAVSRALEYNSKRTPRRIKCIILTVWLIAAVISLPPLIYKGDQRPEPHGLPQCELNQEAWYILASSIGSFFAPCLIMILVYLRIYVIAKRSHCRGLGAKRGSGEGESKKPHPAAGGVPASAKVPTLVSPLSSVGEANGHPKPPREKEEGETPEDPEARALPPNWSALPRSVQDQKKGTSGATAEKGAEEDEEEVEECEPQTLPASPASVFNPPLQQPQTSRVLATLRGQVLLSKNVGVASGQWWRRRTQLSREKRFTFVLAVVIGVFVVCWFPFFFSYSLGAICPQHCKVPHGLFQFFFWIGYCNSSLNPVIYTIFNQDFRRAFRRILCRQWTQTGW
UniProt Q01338: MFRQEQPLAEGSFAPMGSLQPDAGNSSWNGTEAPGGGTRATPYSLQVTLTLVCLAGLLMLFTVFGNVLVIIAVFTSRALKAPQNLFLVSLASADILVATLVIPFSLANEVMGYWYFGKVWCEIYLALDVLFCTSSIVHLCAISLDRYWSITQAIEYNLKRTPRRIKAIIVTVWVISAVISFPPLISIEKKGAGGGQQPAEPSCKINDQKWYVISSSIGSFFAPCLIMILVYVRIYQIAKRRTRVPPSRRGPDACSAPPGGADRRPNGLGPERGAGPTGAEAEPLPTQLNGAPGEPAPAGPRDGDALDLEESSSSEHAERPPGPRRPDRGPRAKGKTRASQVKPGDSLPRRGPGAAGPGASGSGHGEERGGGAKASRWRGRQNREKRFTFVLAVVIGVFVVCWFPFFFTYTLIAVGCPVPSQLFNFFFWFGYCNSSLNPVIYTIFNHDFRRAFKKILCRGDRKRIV
UniProt Q01337: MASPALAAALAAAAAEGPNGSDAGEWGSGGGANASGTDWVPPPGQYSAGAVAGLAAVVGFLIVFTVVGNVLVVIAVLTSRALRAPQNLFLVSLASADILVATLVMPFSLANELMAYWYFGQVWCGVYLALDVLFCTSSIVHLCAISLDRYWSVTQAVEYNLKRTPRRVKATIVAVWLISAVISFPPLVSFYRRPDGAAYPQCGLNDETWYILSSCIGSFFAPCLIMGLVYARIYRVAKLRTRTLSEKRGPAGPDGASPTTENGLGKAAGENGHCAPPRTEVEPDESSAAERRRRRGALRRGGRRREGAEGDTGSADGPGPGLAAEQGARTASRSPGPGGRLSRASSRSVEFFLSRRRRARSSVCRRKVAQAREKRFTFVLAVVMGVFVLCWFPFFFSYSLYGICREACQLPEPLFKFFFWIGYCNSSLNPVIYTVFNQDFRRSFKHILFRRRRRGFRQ
UniProt P18871, whole entry: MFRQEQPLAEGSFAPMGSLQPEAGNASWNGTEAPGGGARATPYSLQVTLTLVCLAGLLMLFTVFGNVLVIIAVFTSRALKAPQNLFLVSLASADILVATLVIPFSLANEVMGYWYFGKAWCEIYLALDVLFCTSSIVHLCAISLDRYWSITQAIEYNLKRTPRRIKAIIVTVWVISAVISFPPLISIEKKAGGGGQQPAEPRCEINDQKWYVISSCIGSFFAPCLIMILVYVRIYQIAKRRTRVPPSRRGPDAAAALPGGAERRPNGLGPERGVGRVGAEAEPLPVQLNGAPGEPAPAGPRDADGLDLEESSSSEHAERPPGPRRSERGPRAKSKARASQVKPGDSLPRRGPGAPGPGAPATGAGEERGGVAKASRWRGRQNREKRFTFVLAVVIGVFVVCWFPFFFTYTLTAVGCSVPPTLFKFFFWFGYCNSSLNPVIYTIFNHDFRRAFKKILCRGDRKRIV

The target in assay [1] is Alpha-2 adrenergic receptor (Mus musculus, UniProt P30545+Q01338+Q01337). The experiment in a line: Compound was evaluated for inhibition of binding of [3H]-MK-91 to Alpha-2 adrenergic receptor in mouse NG-108 cells. The format is cell-based.
The target of assay [2] is T1, Alpha-1A adrenergic receptor (Rattus norvegicus, UniProt P43140).
T1 sequence (P43140 whole entry): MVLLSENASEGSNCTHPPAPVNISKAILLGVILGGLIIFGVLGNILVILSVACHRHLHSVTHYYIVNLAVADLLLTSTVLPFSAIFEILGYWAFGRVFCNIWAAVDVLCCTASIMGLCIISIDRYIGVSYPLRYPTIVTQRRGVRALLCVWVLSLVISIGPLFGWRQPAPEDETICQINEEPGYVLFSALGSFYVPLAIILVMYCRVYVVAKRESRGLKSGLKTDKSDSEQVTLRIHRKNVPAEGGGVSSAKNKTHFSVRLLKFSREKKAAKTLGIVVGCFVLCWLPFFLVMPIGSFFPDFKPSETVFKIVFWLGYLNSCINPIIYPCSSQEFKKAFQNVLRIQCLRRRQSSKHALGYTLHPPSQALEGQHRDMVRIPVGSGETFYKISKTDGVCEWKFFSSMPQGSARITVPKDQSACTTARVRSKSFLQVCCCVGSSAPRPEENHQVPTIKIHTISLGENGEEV
The experiment in a line: Overall binding displacement in tissues containing only the Alpha-1A adrenergic receptor from rat submaxillary gland.

The target in assay [3] is Alpha-2A adrenergic receptor (Sus scrofa, UniProt P18871). Kind of assay: Compound was evaluated for inhibition of binding of [3H]yohimbine to Alpha-2 adrenergic receptor in porcine alpha2-clone.

Structures are written as SMILES.

`COc1cc2nc(N3CCN(C(=O)c4ccco4)CC3)nc(N)c2cc1OC` [PRAZOSIN]: the Ki (in general, a dissociation constant, usually derived from enzyme kinetics or from competition with a known ligand) in assay [1] came to 13 nM.

`O=C(CCCN1CCC2(CC1)C(=O)NCN2c1ccccc1)c1ccc(F)cc1` [SPIPERONE] showed a Ki in assay [2] of 7.2 nM.

In the case of `COC(=O)[C@@H]1[C@H]2C[C@H]3c4[nH]c5ccccc5c4CCN3C[C@@H]2CC[C@@H]1O` [YOHIMBINE], the affinity in assay [3] corresponds to a Ki of 4.4 nM.
